“Also recorded” adds a separate entry of the source.
Tests used:
[1] = molecular target: PAD4 (Homo sapiens, UniProt Q9UM07); assay: PAD4 inhibition/inactivation, residual activity measured with BAEE; type: biochemical
[2] = use as a cancer therapy; cited from earlier work
[3] = molecular target: T1, PAD3 (Homo sapiens, UniProt Q9ULW8); assay: biochemical
T1 sequence (Q9ULW8 1-664): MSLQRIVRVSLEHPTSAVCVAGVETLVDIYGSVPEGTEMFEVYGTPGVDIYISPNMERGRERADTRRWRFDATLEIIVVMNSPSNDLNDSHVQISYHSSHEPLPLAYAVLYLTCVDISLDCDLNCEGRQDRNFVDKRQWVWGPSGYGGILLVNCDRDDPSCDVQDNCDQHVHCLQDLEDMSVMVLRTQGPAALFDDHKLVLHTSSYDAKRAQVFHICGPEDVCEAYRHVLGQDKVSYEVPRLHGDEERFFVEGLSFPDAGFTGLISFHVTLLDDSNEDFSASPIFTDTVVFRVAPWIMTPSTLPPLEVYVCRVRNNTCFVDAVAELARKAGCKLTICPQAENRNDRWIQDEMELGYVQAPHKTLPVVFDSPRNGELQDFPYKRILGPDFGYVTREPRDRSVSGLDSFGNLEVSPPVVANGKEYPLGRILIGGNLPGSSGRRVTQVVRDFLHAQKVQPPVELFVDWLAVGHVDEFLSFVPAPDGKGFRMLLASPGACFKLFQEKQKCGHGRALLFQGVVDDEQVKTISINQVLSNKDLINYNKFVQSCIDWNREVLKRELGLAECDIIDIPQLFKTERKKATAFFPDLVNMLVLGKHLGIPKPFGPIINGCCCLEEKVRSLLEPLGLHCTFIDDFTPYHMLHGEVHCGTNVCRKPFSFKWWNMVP

Amino acid sequences for entries named in this document (tags omitted).
UniProt Q9UM07, whole entry: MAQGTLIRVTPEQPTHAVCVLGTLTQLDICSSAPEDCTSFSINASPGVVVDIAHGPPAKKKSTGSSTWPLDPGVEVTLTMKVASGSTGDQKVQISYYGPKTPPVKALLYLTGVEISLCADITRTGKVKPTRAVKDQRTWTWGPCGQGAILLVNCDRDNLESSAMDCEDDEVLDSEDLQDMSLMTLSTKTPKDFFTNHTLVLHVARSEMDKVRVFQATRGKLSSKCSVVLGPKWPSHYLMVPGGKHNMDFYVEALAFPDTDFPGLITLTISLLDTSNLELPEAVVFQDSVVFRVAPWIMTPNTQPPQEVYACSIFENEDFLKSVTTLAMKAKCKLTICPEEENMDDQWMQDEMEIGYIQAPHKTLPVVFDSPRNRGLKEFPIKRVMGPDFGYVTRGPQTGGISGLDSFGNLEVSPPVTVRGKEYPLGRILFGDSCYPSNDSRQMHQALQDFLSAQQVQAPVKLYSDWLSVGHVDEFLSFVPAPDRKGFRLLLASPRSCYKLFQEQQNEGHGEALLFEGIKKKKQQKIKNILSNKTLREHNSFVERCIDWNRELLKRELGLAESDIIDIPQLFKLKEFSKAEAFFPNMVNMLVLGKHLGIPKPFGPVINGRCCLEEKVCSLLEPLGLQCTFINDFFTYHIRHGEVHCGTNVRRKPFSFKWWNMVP
UniProt Q9Y2J8, whole entry: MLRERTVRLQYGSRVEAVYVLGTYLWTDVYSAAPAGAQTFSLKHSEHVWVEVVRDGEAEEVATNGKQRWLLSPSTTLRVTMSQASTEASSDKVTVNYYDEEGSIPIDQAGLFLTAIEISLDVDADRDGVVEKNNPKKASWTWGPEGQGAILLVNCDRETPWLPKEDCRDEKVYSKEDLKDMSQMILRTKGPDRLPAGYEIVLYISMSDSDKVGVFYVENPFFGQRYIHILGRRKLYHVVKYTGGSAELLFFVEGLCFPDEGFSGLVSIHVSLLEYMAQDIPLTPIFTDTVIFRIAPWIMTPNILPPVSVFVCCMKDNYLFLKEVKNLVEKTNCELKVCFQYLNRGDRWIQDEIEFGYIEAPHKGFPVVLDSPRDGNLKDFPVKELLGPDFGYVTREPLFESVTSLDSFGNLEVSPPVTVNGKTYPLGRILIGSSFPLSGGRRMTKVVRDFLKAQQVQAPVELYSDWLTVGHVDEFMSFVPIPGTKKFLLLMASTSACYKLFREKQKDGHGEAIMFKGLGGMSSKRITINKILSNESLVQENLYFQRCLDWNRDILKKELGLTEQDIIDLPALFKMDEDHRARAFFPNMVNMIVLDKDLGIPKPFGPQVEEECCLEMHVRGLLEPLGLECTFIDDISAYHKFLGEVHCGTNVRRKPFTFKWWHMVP

[4] = molecular target: T2, PAD1 (Homo sapiens, UniProt Q9ULC6); assay: PAD1 inhibition/inactivation, residual activity measured with BAEE
T2 sequence (Q9ULC6 1-663): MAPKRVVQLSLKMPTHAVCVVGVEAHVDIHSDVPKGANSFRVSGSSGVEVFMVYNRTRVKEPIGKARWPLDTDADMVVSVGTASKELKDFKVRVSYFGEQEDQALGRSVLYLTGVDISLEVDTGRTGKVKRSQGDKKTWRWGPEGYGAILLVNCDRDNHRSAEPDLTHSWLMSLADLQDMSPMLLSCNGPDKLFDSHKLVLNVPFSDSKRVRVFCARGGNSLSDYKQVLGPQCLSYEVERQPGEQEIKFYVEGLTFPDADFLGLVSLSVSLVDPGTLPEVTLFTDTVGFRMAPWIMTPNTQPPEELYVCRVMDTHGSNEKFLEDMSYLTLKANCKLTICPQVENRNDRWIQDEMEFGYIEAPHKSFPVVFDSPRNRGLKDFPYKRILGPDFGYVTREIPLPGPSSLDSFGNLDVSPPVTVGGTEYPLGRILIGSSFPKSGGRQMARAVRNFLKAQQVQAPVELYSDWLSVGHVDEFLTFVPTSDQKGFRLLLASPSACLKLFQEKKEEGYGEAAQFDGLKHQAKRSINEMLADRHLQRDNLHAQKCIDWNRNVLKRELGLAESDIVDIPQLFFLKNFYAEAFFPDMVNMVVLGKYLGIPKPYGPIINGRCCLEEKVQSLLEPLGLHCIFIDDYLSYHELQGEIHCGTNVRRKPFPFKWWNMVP

[5] = molecular target: T1, PAD3; details: PAD4 over PAD3, relative values of kinact/KI
[6] = molecular target: PAD2 (Homo sapiens, UniProt Q9Y2J8); assay: biochemical

COC1=C(N)C(=O)c2nc(-c3nc(C(=O)O)c(C)c(-c4ccc(OC)c(OC)c4O)c3N)ccc2C1=O [NIH6, streptonigrin]
kinact [1]: 0.0617 s⁻¹ | kinact/KI [1]: 7330 M⁻¹ s⁻¹ | selectivity for PADs 3 and 4 over PADs 1 and 2 ([1]; based on IC50 values): > 10 fold | kinact/KI values for PADs 1, 2 and 3 fold lower than for PAD4 ([1]; based on kinact/KI): at least 35 fold | side effects / toxicity [2]: nausea, diarrhea, and hair loss; also recorded: bone marrow depression and high toxicity | kinact [3]: 0.00333 s⁻¹ | kinact/KI [3]: 58.3 M⁻¹ s⁻¹ | kinact [4]: 0.000667 s⁻¹ | kinact/KI [4]: 61.7 M⁻¹ s⁻¹ | Fold selectivity ([4]; PAD4 over PAD1, relative values of kinact/KI): 119 fold | Fold selectivity [5]: 126 fold | kinact [6]: 0.00333 s⁻¹ | kinact/KI [6]: 200 M⁻¹ s⁻¹

From publication PMC2943038 (Chemical communications (Cambridge, England), 2010)
